# Source: patent US20090099157A1, “TETRAHYDRO-PYRAZOLO-PYRIDINE THIOETHER MODULATORS OF CATHEPSIN S” (priority 2007, published 2009)
# Sequences of proteins named here, by UniProt entry; tags and fusion partners are left off. Residues count along the entry.
# UniProt P25774, 115-331: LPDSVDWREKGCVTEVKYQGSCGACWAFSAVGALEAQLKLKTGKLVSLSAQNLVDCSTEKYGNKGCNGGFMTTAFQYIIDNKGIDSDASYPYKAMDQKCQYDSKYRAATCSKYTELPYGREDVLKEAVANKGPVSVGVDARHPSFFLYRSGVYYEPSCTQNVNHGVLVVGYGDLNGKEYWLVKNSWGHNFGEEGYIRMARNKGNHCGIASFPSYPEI
# Target: Recombinant human cathepsin S (CatS) (Homo sapiens, UniProt P25774)
# Experiment: biochemical
row,Structure (SMILES),IC50
1,"CS(=O)(=O)N1CCc2c(c(-c3ccc(C(F)(F)F)c(SCC(=O)N4CCC(CO)CC4)c3)nn2CCCN2CCC(N3CCCC3=O)CC2)C1 [Example 77, 1-{1-[3-(3-{3-[2-(4-Hydroxymethyl-piperidin-1-yl)-2-oxo-ethylsulfanyl]-4-trifluoromethyl-phenyl}-5-methanesulfonyl-4,5,6,7-tetrahydro-pyrazolo[4,3-c]pyridin-1-yl)-propyl]-piperidin-4-yl}-pyrrolidin-2-one]",0.12 µM
2,"CN(C)C1CCN(CCSc2cc(-c3nn(CCCN4CCC(N5CCCC5=O)CC4)c4c3CN(S(C)(=O)=O)CC4)ccc2C(F)(F)F)C1 (stereo not drawn) [Example 53, 1-{1-[3-(3-{3-[2-(3-Dimethylamino-pyrrolidin-1-yl)-ethylsulfanyl]-4-trifluoromethyl-phenyl}-5-methanesulfonyl-4,5,6,7-tetrahydro-pyrazolo[4,3-c]pyridin-1-yl)-propyl]-piperidin-4-yl}-pyrrolidin-2-one]",3.23 µM
3,"O=C(C1CCN(CC(O)Cn2nc(-c3ccc(C(F)(F)F)c(SCCN4CCC(F)CC4)c3)c3c2CCNC3)CC1)N1CCCC1 (stereo not drawn) [Example 508, 1-{3-[3-{[2-(4-Fluoropiperidin-1-yl)ethyl]sulfanyl}-4-(trifluoromethyl)phenyl]-4,5,6,7-tetrahydro-1H-pyrazolo[4,3-c]pyridin-1-yl}-3-[4-(pyrrolidin-1-ylcarbonyl)piperidin-1-yl]propan-2-ol]",1.88 µM
4,"CCS(=O)(=O)N1CCc2c(c(-c3ccc(C(F)(F)F)c(SCCN4CCCCC4)c3)nn2CC(O)CN2CCCCC2)C1 (stereo not drawn) [Example 236, 1-[5-(Ethylsulfonyl)-3-{3-[(2-piperidin-1-ylethyl)sulfanyl]-4-(trifluoromethyl)phenyl}-4,5,6,7-tetrahydro-1H-pyrazolo[4,3-c]pyridin-1-yl]-3-piperidin-1-ylpropan-2-ol]",0.33 µM
5,"CS(=O)(=O)N1CCc2c(c(-c3ccc(C(F)(F)F)c(SCCN4CCC(O)CC4)c3)nn2CC(O)CN2CCC(C(=O)N3CCCC3)CC2)C1 (stereo not drawn) [Example 808, 1-[2-({5-[1-{2-Hydroxy-3-[4-(pyrrolidin-1-ylcarbonyl)piperidin-1-yl]propyl}-5-(methylsulfonyl)-4,5,6,7-tetrahydro-1H-pyrazolo[4,3-c]pyridin-3-yl]-2-(trifluoromethyl)phenyl}sulfanyl)ethyl]piperidin-4-ol]",0.11 µM
6,"CC1C(=O)NCCN1CCSc1cc(-c2nn(CC(O)CN3CCC(N4CCCC4)CC3)c3c2CN(S(C)(=O)=O)CC3)ccc1C(F)(F)F (stereo not drawn) [Example 749, 4-(2-{[5-{1-[2-Hydroxy-3-(4-pyrrolidin-1-ylpiperidin-1-yl)propyl]-5-(methylsulfonyl)-4,5,6,7-tetrahydro-1H-pyrazolo[4,3-c]pyridin-3-yl}-2-(trifluoromethyl)phenyl]sulfanyl}ethyl)-3-methylpiperazin-2-one]",0.57 µM
7,"CS(=O)(=O)N1CCc2c(c(-c3ccc(C(F)(F)F)c(SCCN4CCC5CCCCC5C4)c3)nn2C[C@@H](O)CN2CCC(N3C[C@@H](O)CC3=O)CC2)C1 (stereo partly drawn) [Example 873, (4S)-4-Hydroxy-1-{1-[(2S)-2-hydroxy-3-{5-(methylsulfonyl)-3-[3-{[2-(octahydroisoquinolin-2(1H)-yl)ethyl]sulfanyl}-4-(trifluoromethyl)phenyl]-4,5,6,7-tetrahydro-1H-pyrazolo[4,3-c]pyridin-1-yl}propyl]piperidin-4-yl}pyrrolidin-2-one]",0.06 µM
8,"CN(C)c1ccc(C(=O)NCCSc2cc(-c3nn(CC(O)CN4CCC(N5CCCC5=O)CC4)c4c3CN(S(C)(=O)=O)CC4)ccc2C(F)(F)F)cc1 (stereo not drawn) [Example 120, 4-Dimethylamino-N-{2-[5-(1-{2-hydroxy-3-[4-(2-oxo-pyrrolidin-1-yl)-piperidin-1-yl]-propyl}-5-methanesulfonyl-4,5,6,7-tetrahydro-1H-pyrazolo[4,3-c]pyridin-3-yl)-2-trifluoromethyl-phenylsulfanyl]-ethyl}-benzamide]",0.53 µM
9,"CC(=O)N1CCN(CCSc2cc(-c3nn(CC(O)CN4CCC(N5CCCC5)CC4)c4c3CN(S(C)(=O)=O)CC4)ccc2C(F)(F)F)CC1 (stereo not drawn) [Example 802, 1-{3-[3-{[2-(4-Acetylpiperazin-1-yl)ethyl]sulfanyl}-4-(trifluoromethyl)phenyl]-5-(methylsulfonyl)-4,5,6,7-tetrahydro-1H-pyrazolo[4,3-c]pyridin-1-yl}-3-(4-pyrrolidin-1-ylpiperidin-1-yl)propan-2-ol]",1.18 µM
10,"CS(=O)(=O)N1CCc2c(c(-c3ccc(C(F)(F)F)c(SCCN4CC[C@H](F)C4)c3)nn2C[C@@H](O)CN2CCOCC2)C1 [Example 358, (2S)-1-{3-[3-({2-[(3S)-3-Fluoropyrrolidin-1-yl]ethyl}sulfanyl)-4-(trifluoromethyl)phenyl]-5-(methylsulfonyl)-4,5,6,7-tetrahydro-1H-pyrazolo[4,3-c]pyridin-1-yl}-3-morpholin-4-ylpropan-2-ol]",2.11 µM
11,"CS(=O)(=O)N1CCc2c(c(-c3ccc(C(F)(F)F)c(SCCN4CCC(N5CCCC5)CC4)c3)nn2CC(O)CN2CCCC2)C1 (stereo not drawn) [Example 593, 1-{5-(Methylsulfonyl)-3-[3-{[2-(4-pyrrolidin-1-ylpiperidin-1-yl)ethyl]sulfanyl}-4-(trifluoromethyl)phenyl]-4,5,6,7-tetrahydro-1H-pyrazolo[4,3-c]pyridin-1-yl}-3-pyrrolidin-1-ylpropan-2-ol]",4.89 µM

# The remaining compounds from weak to strong by IC50, led by results:
row,IC50,Structure (SMILES)
1,2.9 µM,"CC(C)N(C)CCSc1cc(-c2nn(CCCN3CCCCC3)c3c2CN(S(C)(=O)=O)CC3)ccc1C(F)(F)F [Example 314, N-Methyl-N-[2-({5-[5-(methylsulfonyl)-1-(3-piperidin-1-ylpropyl)-4,5,6,7-tetrahydro-1H-pyrazolo[4,3-c]pyridin-3-yl]-2-(trifluoromethyl)phenyl}sulfanyl)ethyl]propan-2-amine]"
2,1.09 µM,"CC(C)(C)OC(=O)N1CCCC(C(=O)N2CCc3c(c(-c4ccc(C(F)(F)F)c(SCCN5CCC(F)CC5)c4)nn3CC(O)CN3CCCCC3)C2)C1 (stereo not drawn) [Example 872, 1,1-Dimethylethyl 3-({3-[3-{[2-(4-fluoropiperidin-1-yl)ethyl]sulfanyl}-4-(trifluoromethyl)phenyl]-1-(2-hydroxy-3-piperidin-1-ylpropyl)-1,4,6,7-tetrahydro-5H-pyrazolo[4,3-c]pyridin-5-yl}carbonyl)piperidine-1-carboxylate]"
3,0.91 µM,"CCN(CC)C(=O)N1CCc2c(c(-c3ccc(C(F)(F)F)c(SCCN4CCC(F)CC4)c3)nn2C[C@@H](O)CN2CCCCC2)C1 [Example 525, N,N-Diethyl-3-[3-{[2-(4-fluoropiperidin-1-yl)ethyl]sulfanyl}-4-(trifluoromethyl)phenyl]-1-[(2S)-2-hydroxy-3-piperidin-1-ylpropyl]-1,4,6,7-tetrahydro-5H-pyrazolo[4,3-c]pyridine-5-carboxamide]"
4,0.83 µM,"CS(=O)(=O)N1CCc2c(c(-c3ccc(C(F)(F)F)c(SCCN4CCOCC4)c3)nn2CC(O)CN2CCCC2)C1 (stereo not drawn) [Example 328, 1-[5-(Methylsulfonyl)-3-{3-[(2-morpholin-4-ylethyl)sulfanyl]-4-(trifluoromethyl)phenyl}-4,5,6,7-tetrahydro-1H-pyrazolo[4,3-c]pyridin-1-yl]-3-pyrrolidin-1-ylpropan-2-ol]"
5,0.59 µM,"CS(=O)(=O)N1CCc2c(c(-c3ccc(C(F)(F)F)c(SCCN4CCC(N5CCCC5)CC4)c3)nn2CC(O)CN2CCC(O)(c3ccccn3)CC2)C1 (stereo not drawn) [Example 882, 1-(2-Hydroxy-3-{5-(methylsulfonyl)-3-[3-{[2-(4-pyrrolidin-1-ylpiperidin-1-yl)ethyl]sulfanyl}-4-(trifluoromethyl)phenyl]-4,5,6,7-tetrahydro-1H-pyrazolo[4,3-c]pyridin-1-yl}propyl)-4-pyridin-2-ylpiperidin-4-ol]"
6,0.29 µM,"CC1CCN(CCSc2cc(-c3nn(C[C@@H](O)CN4CCSCC4)c4c3CN(S(C)(=O)=O)CC4)ccc2C(F)(F)F)CC1 [Example 467, (2S)-1-{3-[3-{[2-(4-Methylpiperidin-1-yl)ethyl]sulfanyl}-4-(trifluoromethyl)phenyl]-5-(methylsulfonyl)-4,5,6,7-tetrahydro-1H-pyrazolo[4,3-c]pyridin-1-yl}-3-thiomorpholin-4-ylpropan-2-ol]"
7,0.25 µM,"CS(=O)(=O)N1CCc2c(c(-c3ccc(C(F)(F)F)c(SCCN4CCC(F)(F)CC4)c3)nn2C[C@@H](O)CN2CC=CCC2)C1 [Example 485, (2S)-1-{3-[3-{[2-(4,4-Difluoropiperidin-1-yl)ethyl]sulfanyl}-4-(trifluoromethyl)phenyl]-5-(methylsulfonyl)-4,5,6,7-tetrahydro-1H-pyrazolo[4,3-c]pyridin-1-yl}-3-(3,6-dihydropyridin-1(2H)-yl)propan-2-ol]"
8,0.14 µM,"CS(=O)(=O)N1CCc2c(c(-c3ccc(C(F)(F)F)c(SCC(=O)N4CCCC4)c3)nn2CC(O)CN2CCC(N3CCOCC3)CC2)C1 (stereo not drawn) [Example 263, 1-[5-(Methylsulfonyl)-3-{3-[(2-oxo-2-pyrrolidin-1-ylethyl)sulfanyl]-4-(trifluoromethyl)phenyl}-4,5,6,7-tetrahydro-1H-pyrazolo[4,3-c]pyridin-1-yl]-3-(4-morpholin-4-ylpiperidin-1-yl)propan-2-ol]"
9,0.13 µM,"CC(C)(C)C1CCN(CC(O)Cn2nc(-c3ccc(C(F)(F)F)c(SCCN4CCOCC4)c3)c3c2CCN(S(C)(=O)=O)C3)CC1 (stereo not drawn) [Example 178, 1-[4-(1,1-Dimethylethyl)piperidin-1-yl]-3-[5-(methylsulfonyl)-3-{3-[(2-morpholin-4-ylethyl)sulfanyl]-4-(trifluoromethyl)phenyl}-4,5,6,7-tetrahydro-1H-pyrazolo[4,3-c]pyridin-1-yl]propan-2-ol]"
10,0.085 µM,"CS(=O)(=O)N1CCc2c(c(-c3ccc(C(F)(F)F)c(SCCN4CCC(F)(F)CC4)c3)nn2C[C@@H](O)CN2CCC(C(N)=O)CC2)C1 [Example 667, 1-[(2S)-3-{3-[3-{[2-(4,4-Difluoropiperidin-1-yl)ethyl]sulfanyl}-4-(trifluoromethyl)phenyl]-5-(methylsulfonyl)-4,5,6,7-tetrahydro-1H-pyrazolo[4,3-c]pyridin-1-yl}-2-hydroxypropyl]piperidine-4-carboxamide]"
